Reference: US20170007620A1, “Method of replenishing steroid hormones in neutered mammals comprising administration of dehydroepiandrosterone (DHEA) and specific metabolites in order to increase steroid hormone levels from those of neutered mammals associated with high cancer risk, to steroid hormone levels of gonadally-intact …” (priority 2015, published 2017)

Test system: testosterone
Test: Serum testosterone in neutered male dogs before and after DHEA-mediated EGSS (FIG. 2)
Conditions: DHEA 10 mg/kg p.o.

`C[C@]12CC[C@H](O)CC1=CC[C@@H]1[C@@H]2CC[C@]2(C)C(=O)CC[C@@H]12` [DHEA, Dehydroepiandrosterone] was tested, and the testosterone level was “increases”.
